Ab-95 light chain CDR variants: yeast mating affinities

Reference: Engelhart et al. 2022, doi:10.1038/s41597-022-01779-4. File: FLAb, binding data.

Antigen: PDVDLGDISGINAS, a 14-residue peptide of the SARS-CoV-2 spike HR2 region.

Parent: Ab-95, a human scFv built as VH, a (GGGGS)3 linker, VL. Only the CDRs of the light chain vary.
VH: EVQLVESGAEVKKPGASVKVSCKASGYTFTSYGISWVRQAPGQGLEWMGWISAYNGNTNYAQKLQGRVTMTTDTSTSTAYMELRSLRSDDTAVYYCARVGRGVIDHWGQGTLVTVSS
VL: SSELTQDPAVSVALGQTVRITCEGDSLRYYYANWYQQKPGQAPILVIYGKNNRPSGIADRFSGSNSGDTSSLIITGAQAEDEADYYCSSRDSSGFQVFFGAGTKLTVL

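The parent was found by panning a naive human phage display library on the peptide. AAYL52 was designed without a model: most single CDR substitutions and a random sample of double and triple ones. Affinity was read by AlphaSeq, a pooled yeast mating assay with surface-displayed partners. Pairs that bind mate more often; barcode pairs of the diploids are counted by sequencing. Scores were corrected for input abundance and mapped to Kd with protein pairs of known affinity run in the same pool. There are three technical replicates.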

Substitutions are numbered in sequence along the VL above, starting at 1 (not Kabat). Only single mutants are listed, position by position. Affinities are written as log10 Kd with Kd in nM; a lower number is a better binder. Replicates are averaged; those with no signal do not enter the mean. "ND" means that the variant was in the library but no mating with the target was seen in that replicate; the authors take this as a sign of poor binding, and no number exists. Three control strains display no target. For library AAYL52, 28% of the pairings with them gave a signal, with a median of 3.91 and one signal in twenty below 2.90, so weak values seen in few replicates may be background. For each scFv, signals with the empty controls are counted beside the result, with their mean in brackets.

{"changes": "V97C", "log10 Kd, replicates": "3.29 ND ND", "mean log10 Kd (nM)": "3.29", "empty controls": "2 of 9 (3.64)"}
{"changes": "V97H", "log10 Kd, replicates": "2.60 2.63 ND", "mean log10 Kd (nM)": "2.61", "empty controls": "1 of 9 (4.66)"}
{"changes": "V97I", "log10 Kd, replicates": "2.56 3.46 3.68", "mean log10 Kd (nM)": "3.24", "empty controls": "3 of 9 (3.45)"}
{"changes": "V97M", "log10 Kd, replicates": "3.04 3.98 ND", "mean log10 Kd (nM)": "3.51", "empty controls": "1 of 9 (4.03)"}
{"changes": "V97A", "log10 Kd, replicates": "3.83 3.29 2.22", "mean log10 Kd (nM)": "3.11", "empty controls": "1 of 9 (4.72)"}
{"changes": "V97P", "log10 Kd, replicates": "2.94 3.30 3.44", "mean log10 Kd (nM)": "3.23", "empty controls": "3 of 9 (3.63)"}
{"changes": "V97E", "log10 Kd, replicates": "4.29 ND ND", "mean log10 Kd (nM)": "4.29", "empty controls": "2 of 9 (3.13)"}
{"changes": "V97W", "log10 Kd, replicates": "1.94 1.68 1.57", "mean log10 Kd (nM)": "1.73", "empty controls": "2 of 9 (4.13)"}
{"changes": "V97Y", "log10 Kd, replicates": "ND 3.70 ND", "mean log10 Kd (nM)": "3.70", "empty controls": "3 of 9 (4.20)"}
{"changes": "V97K", "log10 Kd, replicates": "ND ND ND", "mean log10 Kd (nM)": "ND", "empty controls": "2 of 9 (4.31)"}
{"changes": "V97Q", "log10 Kd, replicates": "2.39 2.03 1.84", "mean log10 Kd (nM)": "2.09", "empty controls": "3 of 9 (3.87)"}
{"changes": "V97N", "log10 Kd, replicates": "3.35 3.03 2.97", "mean log10 Kd (nM)": "3.12", "empty controls": "4 of 9 (3.96)"}
{"changes": "V97G", "log10 Kd, replicates": "2.14 2.11 1.64", "mean log10 Kd (nM)": "1.96", "empty controls": "2 of 9 (4.32)"}
{"changes": "F98P", "log10 Kd, replicates": "2.57 2.46 2.46", "mean log10 Kd (nM)": "2.50", "empty controls": "1 of 9 (3.39)"}
{"changes": "F98N", "log10 Kd, replicates": "2.64 2.65 1.65", "mean log10 Kd (nM)": "2.32", "empty controls": "0 of 9"}
{"changes": "F98M", "log10 Kd, replicates": "3.64 3.16 2.85", "mean log10 Kd (nM)": "3.22", "empty controls": "3 of 9 (3.49)"}
{"changes": "F98V", "log10 Kd, replicates": "2.49 3.25 3.17", "mean log10 Kd (nM)": "2.97", "empty controls": "3 of 9 (3.71)"}
{"changes": "F98I", "log10 Kd, replicates": "2.81 2.74 2.29", "mean log10 Kd (nM)": "2.61", "empty controls": "4 of 9 (3.76)"}
{"changes": "F98S", "log10 Kd, replicates": "2.11 1.95 1.79", "mean log10 Kd (nM)": "1.95", "empty controls": "2 of 9 (3.42)"}
{"changes": "F98C", "log10 Kd, replicates": "2.98 2.76 2.48", "mean log10 Kd (nM)": "2.74", "empty controls": "4 of 9 (4.68)"}
{"changes": "F98Y", "log10 Kd, replicates": "1.88 1.60 1.11", "mean log10 Kd (nM)": "1.53", "empty controls": "4 of 9 (3.90)"}
{"changes": "F98T", "log10 Kd, replicates": "2.87 2.92 2.58", "mean log10 Kd (nM)": "2.79", "empty controls": "2 of 9 (4.25)"}
{"changes": "F98D", "log10 Kd, replicates": "3.20 2.75 2.41", "mean log10 Kd (nM)": "2.79", "empty controls": "5 of 9 (3.89)"}
{"changes": "F98H", "log10 Kd, replicates": "2.74 2.86 2.72", "mean log10 Kd (nM)": "2.77", "empty controls": "3 of 9 (4.28)"}
{"changes": "F98R", "log10 Kd, replicates": "ND 3.53 2.71", "mean log10 Kd (nM)": "3.12", "empty controls": "1 of 9 (5.31)"}
{"changes": "F98L", "log10 Kd, replicates": "1.87 1.84 1.35", "mean log10 Kd (nM)": "1.69", "empty controls": "2 of 9 (4.05)"}
{"changes": "F98Q", "log10 Kd, replicates": "2.53 2.35 1.63", "mean log10 Kd (nM)": "2.17", "empty controls": "1 of 9 (4.81)"}
{"changes": "F98W", "log10 Kd, replicates": "2.15 1.91 1.91", "mean log10 Kd (nM)": "1.99", "empty controls": "0 of 9"}
{"changes": "F98K", "log10 Kd, replicates": "3.18 3.32 ND", "mean log10 Kd (nM)": "3.25", "empty controls": "1 of 9 (4.04)"}
{"changes": "F98E", "log10 Kd, replicates": "2.10 1.98 1.93", "mean log10 Kd (nM)": "2.00", "empty controls": "3 of 9 (4.01)"}
{"changes": "F98A", "log10 Kd, replicates": "2.20 2.19 1.98", "mean log10 Kd (nM)": "2.12", "empty controls": "5 of 9 (3.96)"}
{"changes": "F98G", "log10 Kd, replicates": "2.72 2.54 2.88", "mean log10 Kd (nM)": "2.71", "empty controls": "4 of 9 (4.19)"}